The entries are a selection whose mix differs from that of the whole data set. The source made the active and inactive calls.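 The calls were made as follows: active = activation at or above 40% of the spot to cytoplasm intensity ratio, with at least 20 cells analyzed; inconclusive = wells under 20 cells, flagged as cytotoxic or low count; inactive = the rest.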
Molecular target: Neurotensin receptor type 1 (Homo sapiens) (UniProt P30989)
Assay: NTR1-driven beta-arrestin-GFP spot formation – imaging, U2OS cells, high content, primary screen (AID 493036) (AID 493036);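 also: 0% = DMSO without peptide and 100% = 100 nM NTR1 peptide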
Conditions: agonist mode, at 20 µM, active compounds read high

Chains of the proteins cited; added tags and fusions are not shown.
UniProt P30989, whole entry: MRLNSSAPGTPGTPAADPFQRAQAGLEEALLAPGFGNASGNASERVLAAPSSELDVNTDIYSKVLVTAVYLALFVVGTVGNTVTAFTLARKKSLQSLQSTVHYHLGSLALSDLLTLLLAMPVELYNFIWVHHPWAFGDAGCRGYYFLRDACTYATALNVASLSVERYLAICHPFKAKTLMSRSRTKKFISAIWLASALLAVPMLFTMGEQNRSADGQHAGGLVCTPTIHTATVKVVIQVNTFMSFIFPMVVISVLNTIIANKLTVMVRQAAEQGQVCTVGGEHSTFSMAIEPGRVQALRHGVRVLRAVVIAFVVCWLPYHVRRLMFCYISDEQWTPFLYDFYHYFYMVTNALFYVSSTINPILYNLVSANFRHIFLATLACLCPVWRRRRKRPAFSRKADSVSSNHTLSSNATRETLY

| Compound | activation |
| --- | --- |
| CC(=O)c1ccc(N2CC2c2ccncc2)cc1 (stereo unspecified) | inactive: -1.6% |
